Antibody variant affinities, Ab-14 heavy chain, assay B

The measurements come from Li et al. 2023 (doi:10.1038/s41467-023-39022-2) through the FLAb antibody collection.

Target peptide (SARS-CoV-2 spike, HR2 region): PDVDLGDISGINAS

Parent: Ab-14, a human scFv built as VH, three GGGGS repeats, VL. Only the CDRs of the heavy chain vary.
VH: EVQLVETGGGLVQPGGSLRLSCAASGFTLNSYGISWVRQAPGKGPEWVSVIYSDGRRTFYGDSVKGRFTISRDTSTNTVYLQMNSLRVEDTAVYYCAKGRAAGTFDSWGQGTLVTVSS
VL: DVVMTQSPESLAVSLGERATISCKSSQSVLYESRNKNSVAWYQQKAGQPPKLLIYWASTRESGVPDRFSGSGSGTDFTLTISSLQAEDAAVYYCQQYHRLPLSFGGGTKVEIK

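Phage display of a naive human antibody library on the peptide gave the parent. This is the validation round: designs drawn from the data on random variants, tested in the same kind of assay. Group labels follow the data file (En: ensemble of fine-tuned language models; HC: hill climbing; Gen: genetic algorithm; Gibbs: Gibbs sampling; a sequence that several methods proposed may carry one label only). The assay is AlphaSeq: two haploid yeast populations carry antibody and antigen on their surface. Binding brings cells together so that they mate, and sequencing counts the barcode pairs among the diploids. Scores were corrected for input abundance and mapped to Kd with protein pairs of known affinity run in the same pool. The assay was run in six technical replicates.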

Each variant is given by its three heavy chain CDRs, as the data file delimits them; those of the parent are GFTLNSYGIS, VIYSDGRRTFYGDSVK, GRAAGTFDS. Variants here have more than six changes. Numbers give log10(Kd / nM), so 0 is 1 nM and 3 is 1 µM. Smaller is tighter. Replicates are averaged; those with no signal do not enter the mean. A pair that was not seen in that replicate is written "ND"; this usually means weak binding, but a binder can also be missed.

With GKTLDEYGIS | VIYADGMRTQYIDQVK | GGIVGWNMT [En_Gibbs] the result was ND, ND, ND, ND, ND, ND. For GFDLEEFGIS | VIYADGTRKMYLPTVK | GVTGGTFDM [En_Gibbs], the assay gave 0.57, 0.91, 1.12, 1.07, 1.55, 0.83 (mean 1.01). The variant GFDLDQYGIS | VIYADGRRTQYANDVK | GKYAGSMLS [En_Gibbs] gave ND, ND, ND, ND, ND, ND. The variant GFDLNEYGIS | VIYADGRRTFYSDSVK | GENAGFFDA [En_HC] showed ND, ND, ND, ND, ND, ND. The variant GFDLNEYGIS | VIYADGQRTAYADSVK | GEVAGTFDI [En_Gen] gave -0.35, -0.01, -0.22, -0.41, -0.61, -0.10 (mean -0.28). The variant GFDLDEYGIS | VIYADGMRTAYSDSVK | GGNAGTFDM [En_Gen] gave -0.43, -0.36, -0.65, -0.50, -0.77, -0.52 (mean -0.54). The variant GFDLDEYGIS | VIYADGMRTAYADSVK | GTNAGTFDM [En_Gen] gave 0.55, 0.35, 0.79, 0.55, -0.09, 0.35 (mean 0.42). For GFLIDEYGIS | VIYADGQRKMYQDNVK | GNVGSLGSV [En_Gibbs], the assay gave 0.80, 0.38, 0.22, 2.05, 0.11, 0.42 (mean 0.66). The variant GFDLNEYGIS | VIYADGRRTFYADSVK | GANAGTFDV [En_HC] showed -0.40, -0.53, -0.55, -0.62, -0.33, -0.15 (mean -0.43).

For GFDLNEYGIS | VIYADGRRTFYADSVK | GKIAGTFNV [En_HC], the assay gave -0.91, -0.99, -0.86, -0.78, -1.05, -0.62 (mean -0.87). The variant DFNLNEYGIS | VIYADGVRASMLDKVK | GQISGTFDT [En_Gibbs] gave ND, 2.23, 1.23, ND, 3.76, ND (mean 2.41). The variant GFDLNEYGIS | VIYADGMRTYYADSVK | GNEAGTFDI [En_Gen] showed -0.11, -0.40, -0.19, 0.05, -0.24, 0.44 (mean -0.08). The variant GFSFNEYGIS | VIYADGKRQAYANTVK | GGKDAAFDI [En_Gibbs] gave ND, ND, ND, ND, ND, ND. The variant GFDLNEYGIS | VIYADGVRTVYADSVK | GTNGGTFDV [En_HC] gave -0.12, -0.19, -0.62, -0.42, -0.56, -0.42 (mean -0.39). The variant GFKIDEYGVS | VIYADGIRRAYADNVK | GYTDDAFDM [En_Gibbs] showed ND, ND, ND, ND, ND, ND. For GFDLNEYGIS | VIYADGRRTFYADSVK | GELAGTFSV [En_HC], the assay gave -0.70, -1.11, -1.46, -1.50, -1.26, -1.06 (mean -1.18). For GFDINEYGIS | VMYADGSRVVYQDNVK | GFQGGTFDM [En_Gibbs], the assay gave 1.90, 1.51, 2.05, ND, 1.80, 1.47 (mean 1.75). For GDSLAEYGIS | VIYADGIRSAYIDSFK | GWVAGYFDV [En_Gibbs], the assay gave ND, ND, ND, ND, ND, ND.

For GFDLNEYGIS | VIYADGRRTFYSDSVK | GNAGGTFDI [En_HC], the assay gave ND, 1.35, ND, ND, 0.40, ND (mean 0.87). The variant GFDLESYGIS | VIYADGRRTFYADDVK | GENAGTFDI [En_HC] showed 0.07, 1.01, 1.65, 0.80, 0.18, 0.45 (mean 0.69). For GFDLNEYGIS | VIYADGRRTSYIDSVK | GNEAGTFDS [En_HC], the assay gave 0.42, -0.17, -0.68, 0.29, -0.30, 1.70 (mean 0.21). For GMDINEYGVS | VIYADGNRTMYIDNVK | GIEGGSFVL [En_Gibbs], the assay gave ND, ND, ND, ND, ND, ND. The variant GFDLDEYGIS | VIYADGKRTYYADSVK | GNVAGTFDV [En_Gen] showed -0.32, -0.66, -0.57, -0.76, -0.97, -0.85 (mean -0.69). The variant GFNLDQYGIS | VIYADGQRTQYANDVK | GHYAGSMLS [En_Gibbs] gave ND, ND, ND, ND, ND, ND. The variant GFDVNEYGIS | VIYADGRRTQYVQSVK | GKNNMVLSV [En_Gibbs] showed ND, ND, ND, ND, ND, ND. With GFDLSEYGIS | VIYADGMRTFYTDSVK | GEVAGTFDV [En_HC] the result was -0.14, -0.41, -0.38, -0.62, -0.50, -0.48 (mean -0.42). With GKDIEEYGIS | VIYADGMRQAYADSVK | GQVVGSGSF [En_Gibbs] the result was ND, ND, ND, ND, ND, ND.

The variant GFDLDEYGIS | VIYADGMRTAYADNVK | GENAGTFDI [En_Gen] gave 0.32, 0.19, -0.22, 0.26, 0.01, -0.25 (mean 0.05). For GFDLNEYGIS | VIYADGMRKAYADSVK | GEVAGTFDI [En_Gen], the assay gave -0.73, -0.44, -0.63, -0.35, -0.44, 0.27 (mean -0.39). The variant GFDLDEYGIS | VIYADGRRTAYADSVK | GEVAGTFDT [En_Gen] showed 0.13, -0.24, -0.01, -0.41, -0.81, -0.02 (mean -0.23). The variant GFDLNEYGIS | VIYADGKRTAYVDDVK | GNNAGTFDV [En_Gen] showed 0.36, 1.08, ND, 0.37, -0.05, 0.05 (mean 0.36). The variant GFDLNEYGIS | VIYADGMRTAYSDSVK | GEAAGTFDL [En_HC] gave -0.15, -0.02, -0.11, -0.15, -0.34, -0.12 (mean -0.15). With GFDINEYGIS | VIYADGRRTAYADSVK | GNVAGTFDV [En_Gen] the result was -0.01, -0.93, 0.22, -0.63, -1.06, -0.81 (mean -0.54). With GFDLEEYGIS | VIYADGKRTAYKNTVK | GSFMIDFKV [En_Gibbs] the result was ND, ND, ND, ND, ND, ND. For GFDLNEYGIS | VIYADGMRTVYADSVK | GENAGTFDM [En_Gen], the assay gave -0.41, -0.70, -0.67, -0.83, -0.56, -0.55 (mean -0.62). For GFNLNEYGIS | VIYADGRRTFYADSVK | GQHAGTFDM [En_HC], the assay gave -0.18, -0.20, -0.10, -0.40, -0.67, -0.27 (mean -0.30).

With GFDLDEYGIS | VIYADGQRTAYADSVK | GETAGTFDT [En_Gen] the result was -0.10, -0.35, -0.20, -0.07, -0.32, 0.30 (mean -0.12). The variant GFDLNEYGIS | VIYADGKRTAYADSVK | GTNAGTFDQ [En_Gen] showed 0.24, 0.73, 0.64, 0.28, 0.28, 0.20 (mean 0.39). For GFDLNEYGIS | VIYADGLRTFYTDSVK | GEFAGTFDL [En_HC], the assay gave 0.79, 0.39, 0.36, 0.47, 0.17, 2.24 (mean 0.74). The variant GFDLNEYGIS | VIYADGRRTFYADSVK | GNQAGTFVS [En_HC] showed 0.64, -0.28, ND, -0.57, -0.13, -0.30 (mean -0.13). The variant GFDLDEYGIS | VIYADGMRTAYSDSVK | GEVAGTFDL [En_Gen] showed -0.09, -0.05, -0.32, -0.66, -0.23, -0.31 (mean -0.28). With GFDLNEYGIS | VIYADGMRTFYADSVK | GEYAGTFDI [En_HC] the result was 0.11, -0.12, -0.43, 0.33, -0.15, 0.11 (mean -0.03). The variant GFDLNEYGIS | VIYADGLRTSYADSVK | GQLAGTFDL [En_HC] gave ND, 1.04, ND, ND, ND, ND. The variant GFDLNEYGIS | VIYADGMRTAYADDVK | GGNAGTFDI [En_Gen] gave -0.53, -0.46, -0.51, -0.86, -0.25, -0.39 (mean -0.50). The variant GFDLNEYGVS | VIYADGIRTKYADSFK | GDVGVALFQ [En_Gibbs] gave ND, ND, ND, ND, ND, ND.

The variant GQDIEHYGIS | VIYADGKRSGYSNAVK | GQQAGTFNT [En_Gibbs] gave ND, 1.61, 0.15, ND, ND, 0.79 (mean 0.85). With GFSLDEYGIS | VIYADGRRTFYADSVK | GNVAGTFDE [En_HC] the result was -0.10, -0.51, -0.50, -0.63, -0.07, -0.41 (mean -0.37). With GFGLDEYGIS | VIYADGRRTFYTDSVK | GGNAGTFDV [En_HC] the result was -0.83, -1.02, -1.35, -1.30, -0.81, -0.62 (mean -0.99). The variant GFDLNEYGIS | VIYADGMRTAYADSVK | GGNAGTFDL [En_Gen] showed 0.05, -0.20, -0.51, -0.50, -0.57, -0.22 (mean -0.33). The variant GFDLNEYGIS | VIYADGRRTAYSDKVK | GNVGGTFDI [En_HC] gave 0.04, -0.51, -0.02, -0.33, -0.20, -0.62 (mean -0.27). For GFDLNEYGIS | VIYADGMRTQYADSVK | GENAGTFDI [En_Gen], the assay gave ND, ND, -0.22, 0.92, 0.58, 1.60 (mean 0.72). The variant GFNLDECGIS | VIYADGRRQMYAVSVK | GEIGGTFLM [En_Gibbs] gave ND, ND, ND, ND, ND, ND.

Repeated from above, the 4 best binders with a signal in all replicates:

Variant GFDLNEYGIS | VIYADGRRTFYADSVK | GELAGTFSV [En_HC] showed -0.70, -1.11, -1.46, -1.50, -1.26, -1.06 (mean -1.18).
Variant GFGLDEYGIS | VIYADGRRTFYTDSVK | GGNAGTFDV [En_HC] showed -0.83, -1.02, -1.35, -1.30, -0.81, -0.62 (mean -0.99).
Variant GFDLNEYGIS | VIYADGRRTFYADSVK | GKIAGTFNV [En_HC] showed -0.91, -0.99, -0.86, -0.78, -1.05, -0.62 (mean -0.87).
Variant GFDLDEYGIS | VIYADGKRTYYADSVK | GNVAGTFDV [En_Gen] showed -0.32, -0.66, -0.57, -0.76, -0.97, -0.85 (mean -0.69).

Empty control strains, which show no peptide, gave a signal in 1% of pairings with all heavy chain designs; the median was 2.08 and 95% of these signals were weaker than 0.84. No background was subtracted. The authors' rule: three or more of the six replicates give a measured affinity, fewer mean a poor binder. The range of this assay differs from that of the first round, and the authors advise against merging the two.